Drawing on PubChem BioAssay (NCATS), this text covers activity change, negative = inhibition for 20 compounds.

Only a part is listed here, and it is no random draw. Results filed as inconclusive are left out. Calls of active or inactive are those of the source. Calls come from the whole dose curve; as a rule, active = well fitted curve in either direction with a large enough effect (not every such curve was filed as active); inconclusive = small, poorly fitted or top-dose-only effect, or another doubt; inactive = flat fitted curve, though single readings scatter.
% is set by controls: 0 for no effect and ±100 for the full control effect.

One assay has as its target Mitogen-activated protein kinase 10 (Mus musculus) (UniProt Q61831). The experiment in a line: JNK3 AlphaScreen Assay (AID 530).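 Note: kinase came from lysate of stimulated human HepG2 cells.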 The conditions noted are these: JNK3 lysate, c-Jun phosphorylation, at 25.6 µM (top of the series). The text has this:
NIH Chemical Genomics Center [NCGC]
NIH Molecular Libraries Screening Centers Network [MLSCN]
The c-jun N-terminal kinase (JNK) family are serine/threonine protein kinases that phosphorylate c-jun, a component of the transcription factor […] (AP-1). JNK kinases are members of the mitogen-activated protein kinase family including the extracellular regulated kinases and p38 kinases. Three JNK genes (JNK 1, 2, and 3) have been identified in humans so far. JNK1 and JNK2 have a broad distribution and JNK3 is primarily found in neuronal tissues and cardiac myocytes.
JNK3 has been under consideration as a target for the treatment of neurodegenerative disorders. […] JNK pathway is also involved in pathological process in a mouse model of Parkinson's disease (Xia et al., 2001).
Given these potential tissue distributions and links to neuroprotection, JNK3 inhibitors should provide useful investigational tools to study the role of this kinase in several diseases including, arthritis, stroke, myocardial infarction, ischemic injury and Parkinson's disease.
A homogeneous AlphaScreen is developed to measure the activity of JNK3. AlphaScreen is a two bead-based proximity-dependent chemical energy transfer luminescent assay platform. The phosphorylation of a biotinylated c-jun substrate by JNK3 can be detected with an antibody raised against phosphorylated c-jun. This process brings streptavidin donor beads and Protein-A acceptor beads to within a proximity range of <200 nm, and subsequently lead a chemical luminescent reaction upon exciting donor beads with 680 nm laser excitation light. Inhibition of JNK3 activity by small molecules and subsequent decrease in the antibody binding to biotinylated c-jun could attenuate or abolish this chemical luminescent reaction.
Yang DD, Kuan CY, Whitmarsh AJ, Rincon M, Zheng TS, Davis RJ, Rakic P and Flavell RA (1997) Absence of excitotoxicity-induced apoptosis in the hippocampus of mice lacking the Jnk3 gene. Nature 389:865-870. [PMID: 9349820]
Herdegen T, Claret FX, Kallunki T, Martin-Villalba A, Winter C, Hunter T, and Karin M (1998) Lasting N-terminal phosphorylation of c-Jun and activation of c-Jun N-terminal kinases after neuronal injury. J.Neurosci. 18:5124-5135. [PMID: 9651196]
Xia XG, Harding T, Weller M, Bieneman A, Uney JB and Schulz JB (2001) Gene transfer of the JNK interacting protein-1 protects dopaminergic neurons in the MPTP model of Parkinson's disease. Proc.Natl.Acad.Sci.U.S.A. 98:10433-10438.
NCGC Assay Protocol Summary:
GST-cJun (1-79) (Stratagene, La Jolla CA, #205145) was biotnylated by PerkinElmer (PerkinElmer-BioSignalInc. Montreal, Canada) and was detectable by the streptavidin Donor beads. Anti-(phospho)cJun (Ser73) antibody was from UpState (Charlottesvilles, VA, #06-659). JNK3-containing lysates were generated from HepG2 cells and pre-activated by interleukin1-beta and tumor necrosis factor alpha. All reagents were stored at -20 C before using. Phosphorylated biotinylated-GST-cJun was recognized by Anti-(phospho)cJun (Ser73) antibody and this process brings acceptor and donor beads together. Therefore JNK3 phosphorylation of cJun can be measured by Alpha reading by EnVision (PerkinElmer, Boston, MA).
The composition of kinase buffer was (in mM) 20 tris- HCl (pH 7.6) 10 MgCl2, 1 DTT, and 0.1 Na3VO4 and 0.01% Tween-20. Beads were diluted in detection buffer containing (in mM) 20 tris-HCl (pH 7.7), 20 NaCl and 80 EDTA and 0.3% BSA. The assay was performed at room temperature. All compounds were screened as titrations from 0.6 nM to 46 uM final concentration. The assay was performed in 1536-well format (white solid bottom and untreated) as follows:
Sequence,Parameter,Value,Description
1,Reagent,3 uL,Biotin-GST-cJun, Anti-(phospho)cJun and pre-activated JNK3-containing lysates
2,Compound,23 nL,Final concentration was 0.6nM to 46uM
3,Time,15 minutes,Room Temperature
4,Reagent,1 uL,ATP final concentration 10uM
6,Reagent,0.5 uL,2ng/well bead mixture
[…]
In general terms: Bead proximity is the source of the signal in Alpha formats.
Consider `NC(=O)Nc1ccc([As](=O)(O)O)cc1`, for which the activity change, negative = inhibition was inactive: -0.459%.

Staying with this assay, now noted: JNK3 lysate, c-Jun phosphorylation, at 57.1 µM (top of the series).
For `NC(=O)Nc1ccc([As](=O)(O)O)cc1`, the activity change, negative = inhibition is inactive: -5.29%.

Staying with this assay, now noted: JNK3 lysate, c-Jun phosphorylation; at 11.4 µM (top of the series) unless noted.
Take `O=C(O)[C@@H](O)c1ccc([As](=O)(O)O)cc1`: the activity change, negative = inhibition was inactive: 0.428%.

For `NS(=O)(=O)Cc1ccc([As](=O)(O)O)cc1`, the activity change, negative = inhibition was inactive: 3.99%.

With `NCC[C@@H](N)CSP(=O)(O)O`, the activity change, negative = inhibition was inactive: -0.321%. Same read-out and setting: to `C(Cc1nn[nH]n1)c1nn[nH]n1` belongs inactive: 3.65%; to `O=[N+]([O-])c1ccc(C[As](=O)(O)O)cc1`, inactive: 1.25%.

On to `CN1CCC[C@H](OC(=O)C(c2ccccc2)c2ccccc2)C1`, for which the activity change, negative = inhibition was inactive: 2.21%.

As to `[N-]=[N+]=NCC(N)=O`, the activity change, negative = inhibition is inactive: 2.21%.

Turning to `[N-]=[N+]=NCC(O)CN=[N+]=[N-]` (stereo unspecified), the activity change, negative = inhibition is inactive: -0.0177%. Same read-out and setting: then `O=C(CO)Nc1ccc([As](=O)(O)O)cc1`, with inactive: 0.669%; and `CN(N=O)C(=N)N[N+](=O)[O-]`, with inactive: -3.32% [at 57.1 µM]. Still for that read-out and setting: to `Cc1cc([N+](=O)[O-])cc([N+](=O)[O-])c1O` belongs inactive: -1.19% [at 57.1 µM]; to `CN(C(=O)Cc1ccc(Cl)c(Cl)c1)[C@@H]1CC[C@@]2(CCCO2)C[C@H]1N1CCCC1`, inactive: 12.1% [at 57.1 µM]; to `C[C@@H](O)COc1ccc([As](=O)(O)O)cc1N`, inactive: 3.22%. On the same count and under the same terms, to `O=[As]c1ccc(S(=O)(=O)NCCO)cc1` (stereo unspecified) belongs inactive: 0.0792%; to `[N-]=[N+]=Nc1ccc([As](=O)(O)O)cc1`, inactive: 1.4%.

With `O=[As](O)(O)c1ccc([As](=O)(O)O)cc1`, the activity change, negative = inhibition was inactive: 2.36%. `O=C(CC(=O)c1ccccc1)O[C@H]1CN2CCC1CC2`: the activity change, negative = inhibition is inactive: 2.4%.

As to `CN(CCCl)Cc1cc(Cl)c(NC2=NCCN2)c(Cl)c1`, the activity change, negative = inhibition is inactive: -26.7% [at 57.1 µM]. Same read-out and setting: to `NC(=O)Nc1cc([As](=O)(O)O)cc(I)c1O` belongs inactive: 2.72%.
